Earlier results as cited in patent US20250049842A1, “THERAPEUTIC BLOOD-ACID-SHIFTING COMPOSITIONS AND METHODS” (priority 2023, published 2025).

Conditions: step (1) HA/A−

Hydroiodic Acid
pKa (pKa1, first or only dissociation): < 1
